Values joined by “and” are separate entries in the source; they are usually repeats but may differ in a detail not shown here. Identical values can stand only once.
Experiments:
[1] = tested on: Bifidobacterium bifidum ATCC #29521; test: Growth in MRS broth + L-cysteine fortified with MSM; settings: 5% MSM; Hour 48
[2] = tested on: Lactobacillus acidophilus milk; test: Growth in simulated gastric acid supplemented with MSM; settings: 5.0% MSM; hour 15 / at maximum
pasture grass mix = test: Grass growth and nutrient value with MSM and/or fertilizer; settings: MSM 1:500, dry basis

Methylsulfonylmethane [MSM]
logs lower than the control [1]: 0.7 logs | logs higher than the control [2]: 0.45 logs and 0.68 logs | Protein Solubility (pasture grass mix): 59.52%

Source: patent publication US20110105623A1 (Biogenic Innovations, LLC, priority 2009, published 2011)
